Experimental data reported in paper PMC5132201, “Formylated MHC Class Ib Binding Peptides Activate Both Human and Mouse Neutrophils Primarily through Formyl Peptide Receptor 1” (PLoS ONE, 2016).
Peptide text beside a SMILES is read from it. * marks the point of attachment. For = O=C*

Test system: Fpr2^-/- neutrophils
Test: NADPH-oxidase activity in neutrophils from wild type versus Fpr2-/- mice
Type: cell-based, mouse

CC[C@H](C)[C@H](NC(=O)[C@H](CC(N)=O)NC(=O)[C@@H](NC(=O)[C@H](Cc1ccccc1)NC(=O)[C@H](Cc1ccc(O)cc1)NC(=O)[C@H](CCSC)NC=O)[C@@H](C)CC)C(=O)N[C@@H](CC(C)C)C(=O)N[C@H](C(=O)N[C@@H](CC(C)C)C(=O)O)[C@@H](C)O (For-MYFINILTL-OH; C-terminus assumed)
Activity in Fpr2-/- neutrophils compared with WT neutrophils: comparable
